The target in test [1] is cSRC (Homo sapiens, UniProt P12931). Briefly: biochemical.
The target in test [2] is T1, TrkB (Homo sapiens, UniProt Q16620). The following applies: read-out: IC50 for TrkB; cellular proliferation, Ba/F3 cells, MTT.
The target of test [3] is T1, TrkB. The test can be described thus: biochemical.

Chains of the proteins cited; added tags and fusions are not shown. Residues count along the entry.
UniProt Q16620, 538-822 limits assumed, stated change not applied: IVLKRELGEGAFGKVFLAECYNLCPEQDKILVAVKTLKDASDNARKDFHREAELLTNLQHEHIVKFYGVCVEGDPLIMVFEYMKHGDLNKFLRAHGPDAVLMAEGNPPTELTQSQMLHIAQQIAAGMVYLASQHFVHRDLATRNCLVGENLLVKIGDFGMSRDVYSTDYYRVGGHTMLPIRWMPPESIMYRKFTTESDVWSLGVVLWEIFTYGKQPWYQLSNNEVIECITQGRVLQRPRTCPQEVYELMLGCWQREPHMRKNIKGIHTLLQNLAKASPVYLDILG
UniProt Q16620, 32-822: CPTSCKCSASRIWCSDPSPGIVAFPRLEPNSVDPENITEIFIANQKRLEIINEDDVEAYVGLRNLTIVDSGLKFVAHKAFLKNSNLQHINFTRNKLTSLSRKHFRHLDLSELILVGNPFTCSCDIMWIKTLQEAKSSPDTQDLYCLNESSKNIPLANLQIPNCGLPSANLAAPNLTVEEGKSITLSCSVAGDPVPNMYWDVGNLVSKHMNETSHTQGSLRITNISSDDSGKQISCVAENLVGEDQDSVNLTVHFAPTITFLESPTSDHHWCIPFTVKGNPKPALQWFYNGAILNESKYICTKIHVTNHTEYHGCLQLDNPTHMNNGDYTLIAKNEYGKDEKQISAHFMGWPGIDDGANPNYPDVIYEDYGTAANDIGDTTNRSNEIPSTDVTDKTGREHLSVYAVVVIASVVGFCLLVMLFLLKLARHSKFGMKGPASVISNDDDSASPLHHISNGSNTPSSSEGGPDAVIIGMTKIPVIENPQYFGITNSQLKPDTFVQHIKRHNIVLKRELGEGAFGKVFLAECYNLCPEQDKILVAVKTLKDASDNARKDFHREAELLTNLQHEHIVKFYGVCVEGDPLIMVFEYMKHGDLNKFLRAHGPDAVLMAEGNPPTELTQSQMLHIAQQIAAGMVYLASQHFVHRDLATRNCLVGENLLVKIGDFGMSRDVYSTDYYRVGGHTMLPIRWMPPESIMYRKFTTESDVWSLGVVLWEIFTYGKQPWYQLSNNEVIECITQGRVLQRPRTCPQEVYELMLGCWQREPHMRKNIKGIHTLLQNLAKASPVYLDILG

This passage reports IC50 and GI50 results from patent publication US8101608B2, “Compounds and compositions as protein kinase inhibitors” (IRM LLC, a Delware Limited Corporation, priority 2004, dated 2012).

As usually defined, the IC50 is the concentration that inhibits the measured activity by half. Higher therefore signals weaker potency.

For the compound `Cc1cn(-c2cc(C(=O)Nc3cccc(Nc4ccc5c(c4)NC(=O)/C5=C/c4ccc[nH]4)c3)cc(C(F)(F)F)c2)cn1` [Example 1], the IC50 in test [1] worked out at 53 nM; in test [3], 14 nM. Further, the GI50 in test [2] turned out to be 8.2 nM.
